The pEC50 is the EC50 on a negative log10 scale, so that one unit is a factor of ten. Lower therefore signals a high EC50.

In the assay the target is wild-type HIV-1AD8 envelope glycoprotein (Env) trimer on virions (HIV-1 (strain AD8) | HIV-1 (strain NL4-3)). The experiment in a line: co-IP.

pEC50: −log10 of the molar value.

The substance “soluble CD4-Ig (from UniProt P01730 26-396) (Fc fusion)” showed a negative logarithm of the EC50 (pEC50) of 7.60.

Source of the values: doi:10.1101/2022.04.21.489129.
